Source: article PMC7766327, “Inhibition of Pneumolysin Cytotoxicity by Hydrolysable Tannins” (Antibiotics, 2020)

Sequences of proteins named here, by UniProt entry; tags and fusion partners are left off.
UniProt Q04IN8, whole entry: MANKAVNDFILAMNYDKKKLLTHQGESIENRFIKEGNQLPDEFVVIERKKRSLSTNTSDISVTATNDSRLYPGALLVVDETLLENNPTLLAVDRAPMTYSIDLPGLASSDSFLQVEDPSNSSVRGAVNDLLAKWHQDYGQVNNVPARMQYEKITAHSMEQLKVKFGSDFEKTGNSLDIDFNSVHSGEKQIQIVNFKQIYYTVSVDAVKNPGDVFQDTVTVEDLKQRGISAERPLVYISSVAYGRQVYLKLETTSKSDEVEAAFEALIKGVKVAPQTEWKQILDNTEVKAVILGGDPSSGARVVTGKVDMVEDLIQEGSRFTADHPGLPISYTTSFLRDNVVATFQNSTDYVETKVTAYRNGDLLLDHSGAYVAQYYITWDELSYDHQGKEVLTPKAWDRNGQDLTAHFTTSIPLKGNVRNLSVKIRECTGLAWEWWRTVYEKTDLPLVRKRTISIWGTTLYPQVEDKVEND

Biological target: T1, pneumolysin (Ply) (Streptococcus pneumoniae serotype 2, UniProt Q04IN8)
T1 construct: made in house; host or cells: E. coli BL21(DE3)
Experiment: cell-based
Details: IC50 (screening with hemolysis assays)
Procedure: Native human erythrocytes were taken into EDTA tubes. The erythrocytes were washed three times with PBS (0.15 M NaCl, 2.7 mM KCl, 8.1 mM Na2HPO4 and 1.5 mM KH2PO4) by centrifugation at 700× g for 10 min. The purified erythrocytes were stored at +4 °C. Erythrocytes (1% v/v) in PBS were mixed with 1 nM Ply and dilution series of polyphenol inhibitors in 96-well microtiter plates. The reaction was incubated for 30 min at 37 °C. The plates were centrifuged, and the supernatant was pipetted into flat-bottomed microtiter plates to measure the absorbance at 570 nm (VICTOR X4, PerkinElmer, Turku, Finland) of the released hemoglobin from lysed erythrocytes. The absorbances of triplicate measurements are presented as a function of inhibitor concentration. The IC50 values were calculated with Origin data analysis software (2016, OriginLab Corporation, Northampton, MA, USA).

O=C(O)C[C@@H]1C(=O)O[C@H]2[C@H](OC(=O)c3cc(O)c(O)c(O)c3)[C@@H](OC(=O)c3cc(O)c(O)c4c3[C@H]1[C@H](O)C(=O)O4)[C@H](OC(=O)c1cc(O)c(O)c(O)c1)O[C@@H]2COC(=O)c1cc(O)c(O)c(O)c1 [Chebulinic acid]
IC50: > 100 nM
